# AlphaSeq binding of Ab-91 heavy chain variants to a spike HR2 peptide

All variants were tested on one target, the spike HR2 peptide PDVDLGDISGINAS (SARS-CoV-2).

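The parent was found by panning a naive human phage display library on the peptide. Variants in AAYL51 differ from the parent at up to three CDR positions; double and triple changes were sampled at random. The assay is AlphaSeq: two haploid yeast populations carry antibody and antigen on their surface. The frequency of each diploid, read from paired DNA barcodes, reflects how well the two displayed proteins bind. Scores were corrected for input abundance and mapped to Kd with protein pairs of known affinity run in the same pool. There are three technical replicates.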

Ab-91 is the parent antibody, in scFv form: VL, then a 15-residue (Gly4Ser)3 linker, then VH. The light chain is unchanged in all variants.
VL: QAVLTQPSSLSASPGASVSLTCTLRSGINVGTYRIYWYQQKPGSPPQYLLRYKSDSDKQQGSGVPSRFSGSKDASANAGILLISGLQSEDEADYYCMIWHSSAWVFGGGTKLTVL
VH: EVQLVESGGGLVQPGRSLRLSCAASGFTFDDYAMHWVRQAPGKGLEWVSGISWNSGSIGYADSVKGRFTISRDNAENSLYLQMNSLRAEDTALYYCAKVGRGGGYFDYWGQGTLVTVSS

The parent's heavy chain CDRs are GFTFDDYAMH, GISWNSGSIGYADSVK, VGRGGGYFDY; each variant's own CDRs replace them letter for letter.
Kd is apparent (estimated from mating counts) and averaged on the log scale over replicates with a signal. Smaller is tighter.
"no signal" marks a missing value. The strain was present, yet no cells mated with the target were sequenced in any replicate, which points to weak or no binding.
As a blank, each scFv also met three strains without target: over library AAYL51, 21% of these pairings were detected, typically at 34 µM and seldom below 1.8 µM. For each scFv, signals with the empty controls are counted beside the result.

CDR-H1,CDR-H2,CDR-H3,Kd,detected,control signals
GFVFDDIAMH,GISWNSGSIGYADSVK,VGRGVGYFDY,84 nM,3/3,8/9
GFTFDDYAMH,GISWNSGSAGYFDSVD,VGRGGGYFDY,97 µM,3/3,5/9
GFTFDDQAMH,GISWNSGSINYADSVK,VTRGGGYFDY,no signal,0/3,1/9
GFTFDDYAMH,GISWNSGSIGYADSVF,VGRGEGYFDT,230 µM,2/3,5/9
GFTFDDYAFH,GISRNSGSIGYADSVM,VGRGGGYFDY,290 nM,2/3,1/9
GFTFDDYAMH,GISWNEGSIGYADSVK,VARGGHYFDY,no signal,0/3,1/9
GFKFDDYAQH,GISWNSGSIGYADSVK,VGRGGGYFHY,no signal,0/3,1/9
GFTFDDYAMH,GISGNSGSIGYADSVT,VGRGYGYFDY,no signal,0/3,2/9
GSTFDDYAMH,GISWNIGSIGYADHVK,VGRGGGYFDY,220 µM,1/3,4/9
GFEFDPYAMH,GISWNSGSIGYADSVK,VGRGGGYFDY,no signal,0/3,1/9
GFTFDHYAMH,GISWNSGSIGYADSVM,VGRGGGFFDY,2.8 nM,3/3,5/9
GFTFDDYNMH,GISWLSGSIGYADSVK,VGRGGGNFDY,140 µM,3/3,7/9
GFTFDDYAMH,LISWNSGSIGYADMVK,VGRGGGYFDY,50 µM,1/3,0/9
GFTFDDYAMV,GISWNSGSMGYADSVK,VGRGGGWFDY,89 µM,1/3,1/9
GFTFDDYAMH,GISWDSNSIGYADSVA,VGRGGGYFDY,2.1 nM,3/3,5/9
GATFDDYAMH,VISWNSGSIGNADSVK,VGRGGGYFDY,no signal,0/3,1/9
NFTFDDYAMH,GISWNSGSSGYADSVK,VGRGEGYFDY,no signal,0/3,0/9
GFTFDDYAME,GISWNSGSIFYADSVK,VGRGGGFFDY,no signal,0/3,0/9
GFTFDDYPMH,GISWNSGSIGYADSAK,VGRGGGYFDR,85 µM,1/3,2/9
GFTFDDKAMH,GISWNSGSIGYADSGK,VGRGGGYFDY,no signal,0/3,1/9
GFTFDDYAMH,GISWNSGSIGNARSVK,VERGGGYFDY,no signal,0/3,2/9
VFTFDDYAMH,GISPNSGSILYADSVK,VGRGGGYFDY,12 µM,2/3,0/9
GFTFDDYAEH,GISWSSISIGYADSVK,VGRGGGYFDY,no signal,0/3,1/9
GFTFDDYAMH,GISWNSGSIGYADFVK,VHRGGGYFEY,71 nM,3/3,1/9

The remaining entries, values ahead:

Kd,detected,control signals,CDR-H1,CDR-H2,CDR-H3
80 µM,1/3,4/9,GFTFDDYAMH,GISWNSGSIGYADHVK,VGRPGGYFDY
4.7 µM,2/3,1/9,AFTFDDYWMH,GISTNSGSIGYADSVK,VGRGGGYFDY
no signal,0/3,0/9,GFTFDDYAMH,GISWGSGGIGYADSVK,VGRGGGYFCY
no signal,0/3,0/9,GFTFDDYAMH,GISWNSGSIQYADSVK,VGRGRGYFAY
no signal,0/3,0/9,GFTFDDYANH,GISPNSGSIGYADSVK,VGRGGGYFSY
810 nM,1/3,0/9,HFTFDDYAMH,GESWNSGSIGYADSVK,VIRGGGYFDY
1.3 µM,2/3,1/9,GFTFVDYAMH,GISWNSWSIGYADSVH,VGRGGGYFDY
2.7 µM,1/3,1/9,GDTFDDYAMH,GISWNSGSIGYADSVK,EGRGGGYFDY
no signal,0/3,0/9,GFTFDDYKMH,GISWNSGSIGYWDSVK,MGRGGGYFDY
580 nM,3/3,5/9,GFTFCDYAMH,GISWNSGSYGYADSVK,VGPGGGYFDY
no signal,0/3,0/9,EFKFDDYAIH,GISWNSGSIGYADSVK,VGRGGGYFDY
33 µM,1/3,1/9,GFTFDDYAMH,GISWNSGSIGYAGSVK,VGRGGGYFNY
48 µM,2/3,4/9,GGTFDDYAMH,GISWNSGSIDYADSVK,MGRGGGYFDY
1.7 µM,3/3,1/9,GFTFDDYACH,GIDWNSGSIGYADSVK,VGIGGGYFDY
6.0 nM,3/3,6/9,GFTFDDNAMH,GISWNSGSIGYADSVK,VGCGMGYFDY
5.4 µM,1/3,3/9,GFTFDDFAMH,GISWDSGSIGYAKSVK,VGRGGGYFDY
no signal,0/3,0/9,GFTLDDMAMH,GKSWNSGSIGYADSVK,VGRGGGYFDY
74 µM,1/3,0/9,GFTFCDYAMH,GYSWNSGSIGYADSVR,VGRGGGYFDY
no signal,0/3,0/9,GFTFDDYAYH,GPSWNSGSIGYADSVK,VGRIGGYFDY
14 µM,1/3,1/9,GFTPDDYAMH,GISWNSGSIGYADSVK,VGRNGGYFWY
no signal,0/3,0/9,GFTFDDYAMH,GISWNPGSIGMADSVK,VGRGGGYEDY
4.8 nM,3/3,3/9,GFTFDDYAMH,GISGNSGSIGYADSVK,VGRGGGDNDY
no signal,0/3,0/9,GFTFDDYAVH,EISWNSGSIGYSDSVK,VGRGGGYFDY
no signal,0/3,0/9,GFPFDDYAMH,GISWNSGSIGYADSVK,VVRGKGYFDY

4 of these entries, quoted again:

{"CDR-H1": "GFTFDDYAMH", "CDR-H2": "GISWNSGSIGNARSVK", "CDR-H3": "VERGGGYFDY", "Kd": "no signal", "detected": "0/3", "control signals": "2/9"}
{"CDR-H1": "GFTFDDYAEH", "CDR-H2": "GISWSSISIGYADSVK", "CDR-H3": "VGRGGGYFDY", "Kd": "no signal", "detected": "0/3", "control signals": "1/9"}
{"CDR-H1": "GFTFDDYACH", "CDR-H2": "GIDWNSGSIGYADSVK", "CDR-H3": "VGIGGGYFDY", "Kd": "1.7 µM", "detected": "3/3", "control signals": "1/9"}
{"CDR-H1": "GFTFDDYAMH", "CDR-H2": "GISWNSGSIGYADSVF", "CDR-H3": "VGRGEGYFDT", "Kd": "230 µM", "detected": "2/3", "control signals": "5/9"}

Reference: Engelhart et al. 2022, doi:10.1038/s41597-022-01779-4. File: FLAb, binding data.